Measurements reported in PMC11336009, “DPP-4 inhibitors sitagliptin and PF-00734,200 mitigate dopaminergic neurodegeneration, neuroinflammation and behavioral impairment in the rat 6-OHDA model of Parkinson’s disease” (GeroScience, 2024).

Amino acid sequences for entries named in this document (tags omitted). Residues count along the entry.
UniProt P14740, 37-767: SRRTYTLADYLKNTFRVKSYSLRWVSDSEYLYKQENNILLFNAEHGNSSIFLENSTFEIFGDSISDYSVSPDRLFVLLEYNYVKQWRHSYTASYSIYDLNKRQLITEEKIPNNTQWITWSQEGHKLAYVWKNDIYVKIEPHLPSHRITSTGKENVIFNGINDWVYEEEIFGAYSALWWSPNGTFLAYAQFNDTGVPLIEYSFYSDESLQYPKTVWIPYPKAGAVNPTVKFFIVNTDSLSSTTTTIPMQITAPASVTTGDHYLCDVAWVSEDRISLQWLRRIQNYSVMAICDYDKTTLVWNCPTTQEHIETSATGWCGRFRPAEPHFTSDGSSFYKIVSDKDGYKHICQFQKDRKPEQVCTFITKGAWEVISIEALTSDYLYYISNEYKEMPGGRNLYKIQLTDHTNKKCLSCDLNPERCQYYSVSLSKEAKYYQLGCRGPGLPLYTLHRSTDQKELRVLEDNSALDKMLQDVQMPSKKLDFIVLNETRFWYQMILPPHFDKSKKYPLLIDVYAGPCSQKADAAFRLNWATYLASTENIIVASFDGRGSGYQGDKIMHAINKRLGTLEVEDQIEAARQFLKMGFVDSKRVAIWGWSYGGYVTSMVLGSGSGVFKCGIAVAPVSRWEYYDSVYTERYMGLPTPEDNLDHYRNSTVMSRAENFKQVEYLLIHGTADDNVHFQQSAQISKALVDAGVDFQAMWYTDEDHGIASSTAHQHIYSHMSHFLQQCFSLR

Biological target: DPP-4 (Rattus norvegicus, UniProt P14740)
Assay: in vivo
Settings: po, read-out: Plasma DPP-4 activity inhibition

With N[C@@H](CC(=O)N1CCn2c(nnc2C(F)(F)F)C1)Cc1cc(F)c(F)cc1F [Sitagliptin] the inhibition at 30 mg/kg was > 60%.
